Sequences of proteins named here, by UniProt entry; tags and fusion partners are left off.
UniProt P31403, whole entry, stated change not applied: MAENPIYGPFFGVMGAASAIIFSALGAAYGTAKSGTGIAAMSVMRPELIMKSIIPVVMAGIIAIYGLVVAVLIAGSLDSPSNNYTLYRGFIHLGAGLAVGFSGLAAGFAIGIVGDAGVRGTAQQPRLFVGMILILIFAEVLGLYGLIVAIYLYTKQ

In paper PMC4047407 (The Journal of Biological Chemistry, 2014):

Molecular target: T1, V-ATPase from S. cerevisiae BMA64-1B deleted for the VMA3 gene but expressing the M. sexta c subunit (Manduca sexta, UniProt P31403)
T1 construct: expressed in transfected cells; host or cells: Saccharomyces cerevisiae BMA64-1B deleted for VMA3; vacuolar membranes
Assay: V-ATPase assay on yeast vacuolar membranes, strain expressing the M. sexta c subunit
Type: biochemical, Saccharomyces cerevisiae / Manduca sexta subunit c
Protocol: V-ATPase assays based on the detection of released phosphate using the M. sexta V-ATPase or yeast vacuolar membranes were carried out as reported previously ([23], [28], [29]).
FIGURE 5. Inhibition of yeast V-ATPase activity. V-ATPase activity from the wild type S. cerevisiae strain BMA64-1B (WT) and BMA64-1B deleted for the VMA3 gene but expressing the M. sexta c subunit was measured in the presence of bafilomycin A1 (open circles) and PA1b (filled circles). For comparison, inhibition of the purified V1Vo holoenzyme of M. sexta (squares) by PA1b is included.

CO/C1=C\C(C)=C\[C@@H](C)[C@@H](O)[C@@H](C)C/C(C)=C/C=C/[C@H](OC)[C@@H]([C@@H](C)[C@@H](O)[C@H](C)[C@@]2(O)C[C@@H](O)[C@H](C)[C@@H](C(C)C)O2)OC1=O [bafilomycin, bafilomycin A1]
Ki: ~2.4 nM
